The values below are quoted from earlier work in PMC9917132, “Tenebrio molitor as a Simple and Cheap Preclinical Pharmacokinetic and Toxicity Model” (International Journal of Molecular Sciences, 2023).

The data set concerns Mice. Particulars: cited from earlier work.

Each structure is given as a SMILES string.

As for `CC1(C)S[C@@H]2[C@H](NC(=O)[C@H](N)c3ccc(O)cc3)C(=O)N2[C@H]1C(=O)O` [Amoxicillin], the “LD50 Mice ip” value is 3590 mg/kg.
